{"sequences": {"note": "The chains behind the UniProt entries cited, without tags or fusion partners.", "UniProt Q63380, whole entry": "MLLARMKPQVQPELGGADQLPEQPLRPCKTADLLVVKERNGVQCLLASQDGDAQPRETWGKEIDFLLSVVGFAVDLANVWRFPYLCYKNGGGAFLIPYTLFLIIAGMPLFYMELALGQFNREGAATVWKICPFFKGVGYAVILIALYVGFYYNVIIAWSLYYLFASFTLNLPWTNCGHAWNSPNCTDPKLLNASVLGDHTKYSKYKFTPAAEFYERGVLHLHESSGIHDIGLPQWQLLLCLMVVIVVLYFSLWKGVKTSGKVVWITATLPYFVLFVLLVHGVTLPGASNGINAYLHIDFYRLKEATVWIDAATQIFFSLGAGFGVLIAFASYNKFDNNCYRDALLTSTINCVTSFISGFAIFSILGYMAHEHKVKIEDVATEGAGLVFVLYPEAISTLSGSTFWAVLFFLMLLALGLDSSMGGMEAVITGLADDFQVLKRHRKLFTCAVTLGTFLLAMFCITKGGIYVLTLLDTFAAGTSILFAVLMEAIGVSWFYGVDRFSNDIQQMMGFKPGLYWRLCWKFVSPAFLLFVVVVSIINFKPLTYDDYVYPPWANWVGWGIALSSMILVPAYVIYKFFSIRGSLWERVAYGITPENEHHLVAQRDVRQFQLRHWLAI"}, "source": "ChEMBL document CHEMBL1671828", "about": "(ACS Med Chem Lett, 2011)", "biological_target": "Transporter (Rattus norvegicus, UniProt Q63380)", "test": "Displacement of [3H]nisoxetine from NET in Sprague-Dawley rat brain membranes", "assay_type": "cell membranes, Membrane", "data": [{"smiles": "COC(=O)[C@H]1[C@@H](OC(=O)c2ccccc2)C[C@@H]2CC[C@H]1N2C", "note": "[COCAINE]", "values": [{"measurement": "Ki", "value": 3.3, "unit": "µM"}]}]}
